Results published in ChEMBL document CHEMBL2218924, “A broad activity screen in support of a chemogenomic map for kinase signalling research and drug discovery” (Biochem J, 2013).
For part of these data: Shown are results outside the selection of strong results, which stands elsewhere. The rule behind the calls is not given here. The list shows a part of the results, in another mix than the full data.

Protein sequences, listed by entry. Tags and fused reporters are not part of them. Lines headed by an entry give the natural chain unless they say otherwise; changes in a name come on top.
UniProt Q05513: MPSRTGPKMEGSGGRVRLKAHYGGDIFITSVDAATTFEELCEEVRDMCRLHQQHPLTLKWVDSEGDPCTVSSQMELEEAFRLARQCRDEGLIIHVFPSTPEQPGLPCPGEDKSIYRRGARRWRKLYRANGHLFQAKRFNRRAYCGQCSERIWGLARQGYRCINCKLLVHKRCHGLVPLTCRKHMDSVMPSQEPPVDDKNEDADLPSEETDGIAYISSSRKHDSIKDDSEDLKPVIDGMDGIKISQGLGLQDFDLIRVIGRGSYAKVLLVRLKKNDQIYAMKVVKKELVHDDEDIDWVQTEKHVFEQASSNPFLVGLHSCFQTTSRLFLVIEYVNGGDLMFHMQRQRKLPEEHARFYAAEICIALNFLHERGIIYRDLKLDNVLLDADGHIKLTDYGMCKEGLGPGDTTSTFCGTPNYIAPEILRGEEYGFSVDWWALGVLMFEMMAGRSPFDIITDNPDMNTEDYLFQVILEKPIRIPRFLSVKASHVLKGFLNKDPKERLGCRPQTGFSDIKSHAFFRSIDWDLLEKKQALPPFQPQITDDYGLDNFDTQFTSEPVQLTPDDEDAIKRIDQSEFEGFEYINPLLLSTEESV
UniProt P00519, whole entry: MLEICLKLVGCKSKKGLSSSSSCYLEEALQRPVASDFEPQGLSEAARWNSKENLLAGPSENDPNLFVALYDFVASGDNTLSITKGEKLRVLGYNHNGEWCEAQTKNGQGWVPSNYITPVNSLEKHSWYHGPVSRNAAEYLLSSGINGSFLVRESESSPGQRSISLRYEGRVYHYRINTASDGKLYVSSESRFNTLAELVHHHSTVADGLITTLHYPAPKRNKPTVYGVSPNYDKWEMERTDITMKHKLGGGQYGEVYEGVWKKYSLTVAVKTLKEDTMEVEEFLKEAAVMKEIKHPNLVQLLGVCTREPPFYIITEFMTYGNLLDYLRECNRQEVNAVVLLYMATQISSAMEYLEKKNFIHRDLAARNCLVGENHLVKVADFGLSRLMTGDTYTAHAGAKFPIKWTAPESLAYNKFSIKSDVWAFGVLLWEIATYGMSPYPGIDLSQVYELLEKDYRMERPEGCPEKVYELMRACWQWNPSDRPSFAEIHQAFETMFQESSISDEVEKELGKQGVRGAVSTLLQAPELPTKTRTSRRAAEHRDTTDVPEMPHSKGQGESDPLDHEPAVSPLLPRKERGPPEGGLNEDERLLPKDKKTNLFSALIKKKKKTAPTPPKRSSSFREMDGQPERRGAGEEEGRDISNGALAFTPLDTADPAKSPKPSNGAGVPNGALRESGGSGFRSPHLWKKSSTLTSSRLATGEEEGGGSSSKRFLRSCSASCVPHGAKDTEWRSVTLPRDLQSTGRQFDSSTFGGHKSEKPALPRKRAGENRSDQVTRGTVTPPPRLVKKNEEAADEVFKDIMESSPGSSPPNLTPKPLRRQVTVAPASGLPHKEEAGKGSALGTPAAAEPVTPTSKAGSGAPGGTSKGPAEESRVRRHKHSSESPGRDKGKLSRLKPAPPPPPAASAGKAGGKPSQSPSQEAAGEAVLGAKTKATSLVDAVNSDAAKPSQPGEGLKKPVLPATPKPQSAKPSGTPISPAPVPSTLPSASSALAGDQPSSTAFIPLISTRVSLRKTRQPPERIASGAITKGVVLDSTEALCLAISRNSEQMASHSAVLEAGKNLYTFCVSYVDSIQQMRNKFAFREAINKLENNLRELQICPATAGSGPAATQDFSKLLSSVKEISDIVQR
UniProt O14965: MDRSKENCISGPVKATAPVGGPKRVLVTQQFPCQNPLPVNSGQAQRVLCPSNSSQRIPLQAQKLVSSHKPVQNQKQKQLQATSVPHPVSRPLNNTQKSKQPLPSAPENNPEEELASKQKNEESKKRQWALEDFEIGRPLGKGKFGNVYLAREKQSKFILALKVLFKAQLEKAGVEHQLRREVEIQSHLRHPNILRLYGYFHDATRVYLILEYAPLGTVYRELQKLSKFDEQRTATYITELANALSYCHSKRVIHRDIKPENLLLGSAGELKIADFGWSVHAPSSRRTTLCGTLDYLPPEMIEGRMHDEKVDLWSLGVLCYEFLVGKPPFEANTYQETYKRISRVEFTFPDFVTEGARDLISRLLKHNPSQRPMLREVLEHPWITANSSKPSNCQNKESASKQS
UniProt Q96GD4, whole entry: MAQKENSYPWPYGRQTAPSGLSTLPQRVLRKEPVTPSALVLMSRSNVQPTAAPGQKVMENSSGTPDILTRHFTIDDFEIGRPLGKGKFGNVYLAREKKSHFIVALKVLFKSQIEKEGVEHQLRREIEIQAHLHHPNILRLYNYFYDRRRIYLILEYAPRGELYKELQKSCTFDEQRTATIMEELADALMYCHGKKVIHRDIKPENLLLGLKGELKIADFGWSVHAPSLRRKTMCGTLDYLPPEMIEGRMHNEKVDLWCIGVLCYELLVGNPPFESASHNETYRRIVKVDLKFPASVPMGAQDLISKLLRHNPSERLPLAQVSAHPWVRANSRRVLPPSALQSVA
UniProt Q9UQB9: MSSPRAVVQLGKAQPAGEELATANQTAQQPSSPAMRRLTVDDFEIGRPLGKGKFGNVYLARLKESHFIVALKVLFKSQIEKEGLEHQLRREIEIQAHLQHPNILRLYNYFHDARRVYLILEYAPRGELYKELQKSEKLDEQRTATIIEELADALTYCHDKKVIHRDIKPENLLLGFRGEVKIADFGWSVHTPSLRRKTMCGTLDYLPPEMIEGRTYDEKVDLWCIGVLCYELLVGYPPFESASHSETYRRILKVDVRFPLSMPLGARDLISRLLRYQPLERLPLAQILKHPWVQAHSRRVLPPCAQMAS
UniProt P30530, whole entry: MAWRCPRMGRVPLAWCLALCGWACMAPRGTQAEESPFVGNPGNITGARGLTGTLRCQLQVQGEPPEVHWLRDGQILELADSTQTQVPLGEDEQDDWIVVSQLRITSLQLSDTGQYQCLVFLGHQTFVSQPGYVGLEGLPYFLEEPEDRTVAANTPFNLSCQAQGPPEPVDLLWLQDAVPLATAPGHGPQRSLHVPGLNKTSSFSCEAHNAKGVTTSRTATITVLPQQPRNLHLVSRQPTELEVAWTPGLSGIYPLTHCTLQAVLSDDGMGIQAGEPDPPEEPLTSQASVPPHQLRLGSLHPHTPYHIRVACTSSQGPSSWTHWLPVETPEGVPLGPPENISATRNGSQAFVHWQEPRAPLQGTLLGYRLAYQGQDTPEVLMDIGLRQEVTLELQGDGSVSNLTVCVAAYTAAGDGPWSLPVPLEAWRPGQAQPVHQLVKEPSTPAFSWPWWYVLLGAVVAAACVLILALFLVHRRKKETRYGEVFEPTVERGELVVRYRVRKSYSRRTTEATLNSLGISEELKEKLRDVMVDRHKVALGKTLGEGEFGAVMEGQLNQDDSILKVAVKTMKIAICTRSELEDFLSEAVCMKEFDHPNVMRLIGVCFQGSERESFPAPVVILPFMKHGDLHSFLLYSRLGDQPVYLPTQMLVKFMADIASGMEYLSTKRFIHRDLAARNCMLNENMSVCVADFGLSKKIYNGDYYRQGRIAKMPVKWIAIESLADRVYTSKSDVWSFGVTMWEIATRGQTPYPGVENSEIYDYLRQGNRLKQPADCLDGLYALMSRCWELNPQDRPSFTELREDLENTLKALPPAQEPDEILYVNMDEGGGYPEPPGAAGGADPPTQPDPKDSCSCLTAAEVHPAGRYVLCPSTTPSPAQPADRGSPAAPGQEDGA
UniProt Q13882, whole entry, looked up: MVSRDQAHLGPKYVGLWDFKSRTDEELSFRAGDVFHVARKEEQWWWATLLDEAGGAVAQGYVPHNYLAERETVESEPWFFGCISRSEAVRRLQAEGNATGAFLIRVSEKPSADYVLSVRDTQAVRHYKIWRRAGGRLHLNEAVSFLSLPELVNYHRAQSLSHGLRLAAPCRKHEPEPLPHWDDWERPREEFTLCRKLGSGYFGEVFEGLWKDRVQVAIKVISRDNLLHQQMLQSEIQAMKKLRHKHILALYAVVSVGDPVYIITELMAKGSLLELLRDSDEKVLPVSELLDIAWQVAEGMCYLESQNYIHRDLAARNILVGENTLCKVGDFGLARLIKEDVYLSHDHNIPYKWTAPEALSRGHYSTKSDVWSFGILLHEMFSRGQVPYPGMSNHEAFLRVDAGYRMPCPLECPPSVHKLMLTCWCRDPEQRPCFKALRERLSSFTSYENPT
UniProt Q9HCP0: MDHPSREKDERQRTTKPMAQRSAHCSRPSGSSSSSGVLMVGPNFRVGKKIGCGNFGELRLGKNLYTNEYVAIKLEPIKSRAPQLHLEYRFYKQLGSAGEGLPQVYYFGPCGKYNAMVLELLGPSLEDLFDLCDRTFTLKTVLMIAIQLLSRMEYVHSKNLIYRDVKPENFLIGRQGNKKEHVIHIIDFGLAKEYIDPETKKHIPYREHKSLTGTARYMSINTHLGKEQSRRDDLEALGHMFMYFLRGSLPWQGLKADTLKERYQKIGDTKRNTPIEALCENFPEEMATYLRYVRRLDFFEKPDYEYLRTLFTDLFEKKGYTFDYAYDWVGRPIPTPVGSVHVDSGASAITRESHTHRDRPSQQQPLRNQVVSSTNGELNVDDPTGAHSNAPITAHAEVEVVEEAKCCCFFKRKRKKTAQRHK
UniProt P19784, whole entry, looked up: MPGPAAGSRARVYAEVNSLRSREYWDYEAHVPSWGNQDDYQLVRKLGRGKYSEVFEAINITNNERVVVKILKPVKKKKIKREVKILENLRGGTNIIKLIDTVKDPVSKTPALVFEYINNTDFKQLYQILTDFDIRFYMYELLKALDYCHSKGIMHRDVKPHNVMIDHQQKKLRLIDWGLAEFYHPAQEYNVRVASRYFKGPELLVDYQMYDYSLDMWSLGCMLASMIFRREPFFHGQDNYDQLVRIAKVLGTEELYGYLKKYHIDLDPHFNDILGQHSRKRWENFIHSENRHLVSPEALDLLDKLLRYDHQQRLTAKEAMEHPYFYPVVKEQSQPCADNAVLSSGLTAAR
UniProt Q9UIK4: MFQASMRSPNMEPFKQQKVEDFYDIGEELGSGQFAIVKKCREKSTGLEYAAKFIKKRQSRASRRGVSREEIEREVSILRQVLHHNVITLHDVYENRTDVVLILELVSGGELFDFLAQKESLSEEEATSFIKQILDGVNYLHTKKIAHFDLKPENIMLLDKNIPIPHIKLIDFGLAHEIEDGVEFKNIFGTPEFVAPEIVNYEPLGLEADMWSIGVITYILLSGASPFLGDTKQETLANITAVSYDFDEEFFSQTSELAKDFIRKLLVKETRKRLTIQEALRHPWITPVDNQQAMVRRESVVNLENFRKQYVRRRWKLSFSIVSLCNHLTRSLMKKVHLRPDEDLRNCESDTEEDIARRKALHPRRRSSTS
UniProt P29317, whole entry: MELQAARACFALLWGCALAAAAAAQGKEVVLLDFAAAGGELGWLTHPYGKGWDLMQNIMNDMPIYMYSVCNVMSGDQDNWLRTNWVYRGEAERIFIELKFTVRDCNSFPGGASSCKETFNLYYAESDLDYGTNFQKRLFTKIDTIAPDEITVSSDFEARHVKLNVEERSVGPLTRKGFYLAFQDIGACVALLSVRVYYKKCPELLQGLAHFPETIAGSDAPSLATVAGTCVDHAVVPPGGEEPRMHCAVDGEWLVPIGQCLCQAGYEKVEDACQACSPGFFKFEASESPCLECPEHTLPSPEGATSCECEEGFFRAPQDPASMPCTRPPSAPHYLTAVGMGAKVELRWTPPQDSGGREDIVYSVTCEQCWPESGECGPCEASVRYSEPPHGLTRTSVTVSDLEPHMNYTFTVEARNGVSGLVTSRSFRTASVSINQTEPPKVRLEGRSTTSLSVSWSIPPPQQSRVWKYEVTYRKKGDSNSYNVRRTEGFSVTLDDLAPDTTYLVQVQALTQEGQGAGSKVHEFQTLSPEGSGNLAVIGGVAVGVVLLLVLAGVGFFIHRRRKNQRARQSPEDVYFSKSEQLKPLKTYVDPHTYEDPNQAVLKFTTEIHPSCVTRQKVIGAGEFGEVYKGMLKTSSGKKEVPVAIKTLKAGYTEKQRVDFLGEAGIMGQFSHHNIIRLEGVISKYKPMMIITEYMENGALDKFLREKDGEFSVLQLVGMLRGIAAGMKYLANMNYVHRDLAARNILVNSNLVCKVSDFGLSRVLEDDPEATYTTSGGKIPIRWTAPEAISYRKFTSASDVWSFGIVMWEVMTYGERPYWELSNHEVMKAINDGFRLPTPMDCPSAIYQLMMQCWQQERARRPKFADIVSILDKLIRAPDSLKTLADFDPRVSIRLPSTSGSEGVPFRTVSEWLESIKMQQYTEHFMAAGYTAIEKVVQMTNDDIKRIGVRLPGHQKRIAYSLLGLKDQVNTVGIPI

Assays:
[1] = molecular target: Protein kinase C zeta type (Homo sapiens) (UniProt Q05513); conditions: at 1 µM
[2] = molecular target: Tyrosine-protein kinase ABL1 (Homo sapiens) (UniProt P00519); conditions: at 1 µM
[3] = molecular target: Aurora kinase A (Homo sapiens) (UniProt O14965); conditions: at 1 µM
[4] = molecular target: Aurora kinase B (Homo sapiens) (UniProt Q96GD4); conditions: at 1 µM
[5] = molecular target: Aurora kinase C (Homo sapiens) (UniProt Q9UQB9); conditions: at 1 µM
[6] = molecular target: Tyrosine-protein kinase receptor UFO (Homo sapiens) (UniProt P30530); conditions: at 1 µM
[7] = molecular target: Protein-tyrosine kinase 6 (Homo sapiens) (UniProt Q13882); conditions: at 10 µM
[8] = molecular target: Tyrosine-protein kinase BTK (Homo sapiens) (UniProt Q06187); conditions: at 1 µM
[9] = molecular target: Tyrosine-protein kinase BTK (Homo sapiens) (UniProt Q06187); conditions: at 10 µM
[10] = molecular target: Tyrosine-protein kinase Blk (Homo sapiens) (UniProt P51451); conditions: at 1 µM
[11] = molecular target: T1, Serine/threonine-protein kinase BRSK2 (Homo sapiens) (UniProt Q8IWQ3); conditions: at 1 µM
T1 sequence (whole entry): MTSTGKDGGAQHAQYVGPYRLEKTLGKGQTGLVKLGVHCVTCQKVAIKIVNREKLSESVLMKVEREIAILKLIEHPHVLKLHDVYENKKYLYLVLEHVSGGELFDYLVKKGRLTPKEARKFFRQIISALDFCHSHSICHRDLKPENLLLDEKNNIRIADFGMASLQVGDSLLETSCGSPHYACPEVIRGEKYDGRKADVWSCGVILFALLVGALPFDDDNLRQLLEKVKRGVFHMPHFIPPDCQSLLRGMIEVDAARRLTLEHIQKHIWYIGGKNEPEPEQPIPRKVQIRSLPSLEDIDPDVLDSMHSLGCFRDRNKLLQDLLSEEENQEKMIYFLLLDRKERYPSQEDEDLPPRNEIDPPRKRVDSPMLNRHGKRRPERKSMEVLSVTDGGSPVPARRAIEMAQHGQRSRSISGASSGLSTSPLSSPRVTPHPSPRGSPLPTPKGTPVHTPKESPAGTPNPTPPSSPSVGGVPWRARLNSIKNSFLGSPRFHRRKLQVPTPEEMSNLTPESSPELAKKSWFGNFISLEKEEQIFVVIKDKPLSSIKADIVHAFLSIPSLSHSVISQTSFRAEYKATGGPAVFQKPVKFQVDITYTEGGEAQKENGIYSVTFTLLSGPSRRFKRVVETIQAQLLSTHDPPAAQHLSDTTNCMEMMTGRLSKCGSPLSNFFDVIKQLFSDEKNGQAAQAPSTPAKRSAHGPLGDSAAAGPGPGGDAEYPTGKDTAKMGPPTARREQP

[12] = molecular target: Serine/threonine-protein kinase Chk2 (Homo sapiens) (UniProt O96017); conditions: at 1 µM
[13] = molecular target: Casein kinase I isoform gamma-1 (Homo sapiens) (UniProt Q9HCP0); conditions: at 1 µM
[14] = molecular target: Casein kinase I isoform gamma-1 (Homo sapiens) (UniProt Q9HCP0); conditions: at 10 µM
[15] = molecular target: Casein kinase I isoform delta (Homo sapiens) (UniProt P48730); conditions: at 1 µM
[16] = molecular target: Casein kinase II subunit alpha' (Homo sapiens) (UniProt P19784); conditions: at 10 µM
[17] = molecular target: Calcium/calmodulin-dependent protein kinase type II subunit gamma (Homo sapiens) (UniProt Q13555); conditions: at 1 µM
[18] = molecular target: Death-associated protein kinase 1 (Homo sapiens) (UniProt P53355); conditions: at 1 µM
[19] = molecular target: Death-associated protein kinase 2 (Homo sapiens) (UniProt Q9UIK4); conditions: at 1 µM
[20] = molecular target: Death-associated protein kinase 2 (Homo sapiens) (UniProt Q9UIK4); conditions: at 10 µM
[21] = molecular target: T2, Discoidin domain-containing receptor 2 (Homo sapiens) (UniProt Q16832); conditions: at 10 µM
T2 sequence (whole entry): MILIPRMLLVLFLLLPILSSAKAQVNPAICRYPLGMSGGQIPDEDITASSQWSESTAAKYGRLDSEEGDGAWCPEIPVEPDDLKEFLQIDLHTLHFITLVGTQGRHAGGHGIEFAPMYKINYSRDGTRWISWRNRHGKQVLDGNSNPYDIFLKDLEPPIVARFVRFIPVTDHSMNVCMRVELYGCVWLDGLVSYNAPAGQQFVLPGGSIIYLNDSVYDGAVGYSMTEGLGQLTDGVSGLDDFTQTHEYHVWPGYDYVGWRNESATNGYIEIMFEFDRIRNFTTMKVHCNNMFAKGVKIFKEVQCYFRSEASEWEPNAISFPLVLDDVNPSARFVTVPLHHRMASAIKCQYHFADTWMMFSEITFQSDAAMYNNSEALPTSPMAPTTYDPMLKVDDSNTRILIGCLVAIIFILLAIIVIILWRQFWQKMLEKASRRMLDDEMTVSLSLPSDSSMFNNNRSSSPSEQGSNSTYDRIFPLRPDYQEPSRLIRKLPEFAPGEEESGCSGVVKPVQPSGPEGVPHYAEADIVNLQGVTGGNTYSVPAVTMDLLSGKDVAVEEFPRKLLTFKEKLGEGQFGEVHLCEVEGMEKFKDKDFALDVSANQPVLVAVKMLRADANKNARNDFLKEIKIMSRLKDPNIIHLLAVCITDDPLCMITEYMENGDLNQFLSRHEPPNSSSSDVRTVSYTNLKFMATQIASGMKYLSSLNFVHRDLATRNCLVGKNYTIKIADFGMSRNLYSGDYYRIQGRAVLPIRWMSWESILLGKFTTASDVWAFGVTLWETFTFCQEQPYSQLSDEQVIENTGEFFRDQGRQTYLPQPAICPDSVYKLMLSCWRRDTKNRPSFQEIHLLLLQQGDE

[22] = molecular target: Serine/threonine-protein kinase 17A (Homo sapiens) (UniProt Q9UEE5); conditions: at 1 µM
[23] = molecular target: Dual specificity tyrosine-phosphorylation-regulated kinase 2 (Homo sapiens) (UniProt Q92630); conditions: at 1 µM
[24] = molecular target: T3, Ephrin type-A receptor 1 (Homo sapiens) (UniProt P21709); conditions: at 1 µM
T3 sequence (whole entry): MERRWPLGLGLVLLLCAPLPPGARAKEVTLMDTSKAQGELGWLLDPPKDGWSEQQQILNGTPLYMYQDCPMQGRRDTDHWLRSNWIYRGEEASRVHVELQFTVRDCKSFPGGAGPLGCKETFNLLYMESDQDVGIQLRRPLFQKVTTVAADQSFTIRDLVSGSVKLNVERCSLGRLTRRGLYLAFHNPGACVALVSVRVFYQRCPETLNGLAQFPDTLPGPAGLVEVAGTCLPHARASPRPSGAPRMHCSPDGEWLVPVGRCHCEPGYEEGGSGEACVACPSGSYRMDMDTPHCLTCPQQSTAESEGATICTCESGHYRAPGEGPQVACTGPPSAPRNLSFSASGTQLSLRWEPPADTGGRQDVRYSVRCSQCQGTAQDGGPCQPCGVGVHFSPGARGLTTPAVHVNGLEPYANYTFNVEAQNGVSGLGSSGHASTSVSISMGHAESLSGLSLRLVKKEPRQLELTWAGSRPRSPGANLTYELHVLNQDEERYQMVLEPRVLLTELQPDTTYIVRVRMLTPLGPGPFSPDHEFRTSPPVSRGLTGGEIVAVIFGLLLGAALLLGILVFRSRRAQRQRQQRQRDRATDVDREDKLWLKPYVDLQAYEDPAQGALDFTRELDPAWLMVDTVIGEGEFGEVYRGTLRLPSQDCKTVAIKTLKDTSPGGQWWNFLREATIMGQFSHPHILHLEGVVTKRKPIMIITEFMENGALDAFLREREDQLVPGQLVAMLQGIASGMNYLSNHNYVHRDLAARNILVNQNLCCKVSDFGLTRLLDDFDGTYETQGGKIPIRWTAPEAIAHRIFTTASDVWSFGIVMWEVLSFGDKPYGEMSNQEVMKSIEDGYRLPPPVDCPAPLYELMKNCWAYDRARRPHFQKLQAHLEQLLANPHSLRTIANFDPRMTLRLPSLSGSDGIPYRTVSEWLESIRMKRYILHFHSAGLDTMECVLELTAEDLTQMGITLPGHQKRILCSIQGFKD

[25] = molecular target: T3, Ephrin type-A receptor 1 (Homo sapiens); conditions: at 10 µM
[26] = molecular target: Ephrin type-A receptor 2 (Homo sapiens) (UniProt P29317); conditions: at 10 µM
[27] = molecular target: T4, Ephrin type-A receptor 3 (Homo sapiens) (UniProt P29320); conditions: at 1 µM
T4 sequence (whole entry): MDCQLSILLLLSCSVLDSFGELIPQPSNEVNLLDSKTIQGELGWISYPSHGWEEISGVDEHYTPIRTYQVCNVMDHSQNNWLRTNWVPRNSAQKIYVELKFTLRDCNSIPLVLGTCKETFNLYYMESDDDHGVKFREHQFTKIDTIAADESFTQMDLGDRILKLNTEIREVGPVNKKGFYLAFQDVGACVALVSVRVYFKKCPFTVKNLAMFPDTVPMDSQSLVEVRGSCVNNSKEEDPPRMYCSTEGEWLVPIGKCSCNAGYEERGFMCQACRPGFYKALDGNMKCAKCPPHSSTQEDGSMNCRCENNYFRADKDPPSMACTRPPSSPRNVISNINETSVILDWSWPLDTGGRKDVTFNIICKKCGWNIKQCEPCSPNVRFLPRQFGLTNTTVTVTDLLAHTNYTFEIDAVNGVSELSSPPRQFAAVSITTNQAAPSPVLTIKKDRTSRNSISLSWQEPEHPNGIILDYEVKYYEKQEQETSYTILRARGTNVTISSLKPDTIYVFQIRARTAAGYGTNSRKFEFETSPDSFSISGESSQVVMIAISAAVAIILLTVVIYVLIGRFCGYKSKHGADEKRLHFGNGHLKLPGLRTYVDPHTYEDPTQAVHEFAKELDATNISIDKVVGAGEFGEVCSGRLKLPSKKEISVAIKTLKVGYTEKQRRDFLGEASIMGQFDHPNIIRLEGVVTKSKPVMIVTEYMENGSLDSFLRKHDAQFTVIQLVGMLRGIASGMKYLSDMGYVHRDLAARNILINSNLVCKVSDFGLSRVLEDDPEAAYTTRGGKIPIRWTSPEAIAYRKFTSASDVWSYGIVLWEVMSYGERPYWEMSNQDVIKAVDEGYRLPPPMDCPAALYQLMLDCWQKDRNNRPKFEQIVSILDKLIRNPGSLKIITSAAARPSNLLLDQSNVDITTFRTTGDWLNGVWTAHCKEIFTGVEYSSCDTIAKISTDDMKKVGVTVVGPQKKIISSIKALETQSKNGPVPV

O=C1NC(=O)C(c2cn(CCCn3ccnc3)c3ccccc23)=C1Nc1ccccc1
residual activity [1]: inactive: 87% | residual activity [2]: 98% | residual activity [3]: 86% | residual activity [4]: 99% | residual activity [5]: 85% | residual activity [6]: 86% | residual activity [7]: 89% | residual activity [8]: 101% | residual activity [9]: 96% | residual activity [10]: 85% | residual activity [11]: 89% | residual activity [12]: 95% | residual activity [13]: 98% | residual activity [14]: 84% | residual activity [15]: 86% | residual activity [16]: 91% | residual activity [17]: 88% | residual activity [18]: 89% | residual activity [19]: 95% | residual activity [20]: 101% | residual activity [21]: 95% | residual activity [22]: 98% | residual activity [23]: 98% | residual activity [24]: 84% | residual activity [25]: 83% | residual activity [26]: 98% | residual activity [27]: 89%
